Measurements as given in paper PMC2222956.

Target: PKA-C target

Substance: PKI (Protein Kinase Inhibitor) (from UniProt P61925 1-76) (natural protein)
- inhibition of membrane currents, whole-cell patch clamp on P. falciparum-infected erythrocytes, 1 μg/ml PKI in the pipette, maximum after 10–15 minutes; not reversed by 5 mM cAMP: 59.2%
